Experimental data: PMC10848157, “Assessing NH300094, a novel dopamine and serotonin receptor modulator with cognitive enhancement property for treating schizophrenia” (Frontiers in Pharmacology, 2024)

Assay: in vivo
Conditions: male, ICR, mouse, po

With `Cc1nc2n(c(=O)c1CCN1CCC(c3noc4cc(F)ccc34)CC1)CCCC2` [Risperidone, risperidone, reference compound] the ED50 at 60 min was roughly 0.52 mg/kg.
